These results are taken from patent EP1038880B1, “Androstanes and pregnanes for allosteric modulation of GABA receptor” (priority 1994, dated 1995).

One assay relates to Sprague-Dawley rats. Briefly: Geller-Seifter conflict test. The settings on record: subcutaneous administration (Figure 10). Format: in vivo.
The target in the next assay is T1, Glucocorticoid Receptors (Rattus norvegicus, UniProt P06536).
T1 construct: from tissue; host or cells: rat brain cytosol
T1 sequence (P06536 1-795): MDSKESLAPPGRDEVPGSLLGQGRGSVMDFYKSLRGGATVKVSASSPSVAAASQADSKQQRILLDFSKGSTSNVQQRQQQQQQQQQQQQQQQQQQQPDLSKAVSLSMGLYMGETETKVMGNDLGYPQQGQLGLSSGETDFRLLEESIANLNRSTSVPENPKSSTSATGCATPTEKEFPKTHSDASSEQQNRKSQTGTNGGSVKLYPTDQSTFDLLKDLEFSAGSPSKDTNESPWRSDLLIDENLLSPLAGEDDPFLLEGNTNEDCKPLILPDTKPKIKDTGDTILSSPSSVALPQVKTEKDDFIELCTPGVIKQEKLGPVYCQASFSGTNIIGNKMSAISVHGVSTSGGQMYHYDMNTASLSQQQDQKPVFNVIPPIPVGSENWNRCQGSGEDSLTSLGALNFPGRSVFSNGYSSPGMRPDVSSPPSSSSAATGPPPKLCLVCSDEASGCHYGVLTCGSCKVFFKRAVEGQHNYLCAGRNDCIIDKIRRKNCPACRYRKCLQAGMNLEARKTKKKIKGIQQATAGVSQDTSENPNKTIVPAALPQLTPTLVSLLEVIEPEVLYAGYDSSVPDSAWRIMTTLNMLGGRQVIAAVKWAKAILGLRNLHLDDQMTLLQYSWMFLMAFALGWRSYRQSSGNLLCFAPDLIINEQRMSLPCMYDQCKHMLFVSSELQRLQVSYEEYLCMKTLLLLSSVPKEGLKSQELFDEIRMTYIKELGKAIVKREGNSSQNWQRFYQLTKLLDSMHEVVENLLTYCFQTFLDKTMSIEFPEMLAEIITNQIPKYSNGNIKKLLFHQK
The assay is described as follows: Inhibition of 3H-dexamethasone binding, brain cytosol. On the set-up: species or system rats; dose or concentration left out as unconfirmed. The settings on record: read-out: % of Inhibition.

With `CC(=O)[C@H]1CC[C@H]2[C@@H]3CC[C@@H]4C[C@H](O)CC[C@]4(C)[C@H]3CC[C@]12C` [5β-pregnan-3α-ol-20-one, 3α-OH-5β-pregnan-20-one, reference compound], the “dose of peak effect on rate of punished responses” value with Sprague-Dawley rats was found to be 2 mg/kg. For the same molecule, the inhibition at Glucocorticoid Receptors is 5.9%.
